Measured values from patent publication US11807635B2, “Nitrile derivative that acts as inhibitor of dipeptidyl peptidase 1 and use thereof” (HAISCO PHARMACEUTICALS PTE. LTD, priority 2020, dated 2023).

By UniProt entry, the sequences of proteins in these tests, tags left out. Residues count along the entry.
UniProt P53634, 395-463: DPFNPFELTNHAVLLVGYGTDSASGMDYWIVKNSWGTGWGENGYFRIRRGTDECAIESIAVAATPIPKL
UniProt P53634, 25-134: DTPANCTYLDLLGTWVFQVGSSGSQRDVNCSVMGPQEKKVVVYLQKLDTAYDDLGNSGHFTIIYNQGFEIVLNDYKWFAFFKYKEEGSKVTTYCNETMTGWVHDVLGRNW
UniProt P53634, 231-394: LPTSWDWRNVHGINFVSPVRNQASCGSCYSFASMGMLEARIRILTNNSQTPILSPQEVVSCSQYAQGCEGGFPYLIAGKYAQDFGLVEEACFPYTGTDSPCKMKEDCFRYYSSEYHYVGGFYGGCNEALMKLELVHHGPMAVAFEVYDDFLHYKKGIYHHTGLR

Molecular target: Recombinant human DPP1 enzyme (Homo sapiens (Human), UniProt P53634)
Test: In vitro DPP1 enzyme activity assay
Assay type: biochemical
Settings: recombinant human DPP1 activated with cathepsin L, substrate Gly-Arg-AMC, fluorescence; read-out: DPP1 inhibitory activity IC50

IC50: 0.5 nM
Structure (SMILES): [2H]C([2H])([2H])n1c(=O)oc2ccc(-c3ccc(C[C@@H](C#N)NC(=O)[C@@H]4CNCCCO4)c(F)c3)cc21 [Compound 23, (S)—N—((S)-1-cyano-2-(2-fluoro-4-(3-(methyl-d3)-2-oxo-2,3-dihydrobenzo[d]oxazol-5-yl)phenyl)ethyl)-1,4-oxazepane-2-carboxamide]
